Source: ChEMBL document CHEMBL5500354, “Novel selective agents for the degradation of AR/AR-V7 to treat advanced prostate cancer” (Eur J Med Chem, 2024)

Experiments:
in vivo [1] = conditions: Sprague-Dawley, rat, iv
in vivo [2] = conditions: Sprague-Dawley, rat, po, 10 mg/kg
in vivo [3] = conditions: Sprague-Dawley, rat, po, 10 mg/kg; remark: listed apart in the source

## N#Cc1ccc(O[C@H]2CC[C@H](NC(=O)c3ccc(N4CCC(Cc5ccc(NC6CN(CCCF)C6)cc5)CC4)nn3)CC2)cc1Cl
In vivo [1]
  half-life: 13.9 h
In vivo [2]
  Cmax at 24 h: 65 nM
In vivo [3]
  Tmax at 24 h: ~6 h
